# scFv variants of Ab-14 (light chain) against a SARS-CoV-2 spike peptide

Source: Li et al. 2023 (doi:10.1038/s41467-023-39022-2), MIT Lincoln Laboratory and A-Alpha Bio; data file from the FLAb repository.

The target is the same throughout: PDVDLGDISGINAS, from the HR2 region of SARS-CoV-2 spike.

Parent scFv Ab-14: VH joined to VL by a (GGGGS)3 linker. Changes lie in the light chain CDRs alone.
VH: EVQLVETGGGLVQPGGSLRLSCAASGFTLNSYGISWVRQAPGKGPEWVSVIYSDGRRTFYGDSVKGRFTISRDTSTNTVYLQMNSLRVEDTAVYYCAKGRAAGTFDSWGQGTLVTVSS
VL: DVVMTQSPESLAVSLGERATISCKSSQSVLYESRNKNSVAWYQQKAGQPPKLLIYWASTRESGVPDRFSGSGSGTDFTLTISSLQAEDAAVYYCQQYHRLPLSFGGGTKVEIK

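The parent was found by panning a naive human phage display library on the peptide. The variants were designed computationally from a first round of random CDR variants and then made and measured. Their group label is 14L_GP_Gibbs (GP: Gaussian process model; Gibbs: Gibbs sampling; a sequence that several methods proposed may carry one label only). Affinity was read by AlphaSeq, a pooled yeast mating assay with surface-displayed partners. Mating (16 h, 30 °C) was followed by selection of diploids and sequencing of their barcodes. The ratio of observed to expected reads was calibrated, replicate by replicate, on BCL2-family standards whose Kd was known from biolayer interferometry. Mating was done six times.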

The whole VL of each variant is written out. Values are log10 of the apparent Kd in nM; lower means stronger binding. Replicates are averaged; those with no signal do not enter the mean. Background: pairings of all light chain designs with three empty control strains gave a value in 4% of cases (median 2.64, 5th percentile 1.59). Values in that range, when seen in few replicates, are hard to tell from nonspecific mating. The control count says in how many pairings with the empty strains this scFv gave a signal, with their mean in brackets. Of ten entries with the parent sequence, four were seen in most replicates (averages 0.34 to 2.37), three in one and three in none, so single entries are noisy. The range of this assay differs from that of the first round, and the authors advise against merging the two. In the paper, a design with two or fewer of six values counts as a poor binder.

{"VL": "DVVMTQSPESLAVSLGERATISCKLQFSCLYESRNKNSVAWYQQKAGQPPKLLIYDASYRSSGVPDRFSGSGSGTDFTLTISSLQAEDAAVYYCQQYHRLPLSFGGGTKVEIK", "log10 Kd (nM) by replicate": "0.10 0.02 -0.12 -0.07 -0.26 -0.28", "mean log10 Kd (nM)": "-0.10", "signal with controls": "0/18"}
{"VL": "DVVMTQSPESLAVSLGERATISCKFSQSVDYESRNKASVAWYQQKAGQPPKLLIYDASTRMSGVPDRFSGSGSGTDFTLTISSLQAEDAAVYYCQQYHRLPLSFGGGTKVEIK", "log10 Kd (nM) by replicate": "0.76 0.10 0.28 -0.03 0.17 0.24", "mean log10 Kd (nM)": "0.25", "signal with controls": "0/18"}
{"VL": "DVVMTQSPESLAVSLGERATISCKYQQSELTESRNKNSVAWYQQKAGQPPKLLIYNASTRESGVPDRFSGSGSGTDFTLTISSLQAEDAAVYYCQQYHQLPLSFGGGTKVEIK", "log10 Kd (nM) by replicate": "1.83 0.42 0.60 0.88 -0.12 0.17", "mean log10 Kd (nM)": "0.63", "signal with controls": "0/18"}
{"VL": "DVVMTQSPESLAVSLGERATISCKVSQSTLYESLMKNSVAWYQQKAGQPPKLLIYNASVRSQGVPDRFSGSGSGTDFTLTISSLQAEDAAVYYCQQYHRLPLSFGGGTKVEIK", "log10 Kd (nM) by replicate": "0.21 0.06 -0.11 -0.22 -0.10 0.08", "mean log10 Kd (nM)": "-0.01", "signal with controls": "2/18 (3.09)"}
{"VL": "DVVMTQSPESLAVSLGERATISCKLDGSFLYESRNKNSVAWYQQKAGQPPKLLIYEASERESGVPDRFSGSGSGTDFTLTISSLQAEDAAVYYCQQYHRLPLSFGGGTKVEIK", "log10 Kd (nM) by replicate": "1.15 -0.04 0.20 0.20 0.75 1.55", "mean log10 Kd (nM)": "0.63", "signal with controls": "0/18"}
{"VL": "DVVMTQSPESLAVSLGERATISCKLSQLVLMESRNHNSVAWYQQKAGQPPKLLIYSANTREEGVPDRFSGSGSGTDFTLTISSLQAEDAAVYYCQQYHRLPLSFGGGTKVEIK", "log10 Kd (nM) by replicate": "0.13 -0.02 -0.11 0.02 -0.09 0.10", "mean log10 Kd (nM)": "0.00", "signal with controls": "0/18"}
{"VL": "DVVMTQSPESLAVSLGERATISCKVSQSMWYESRMKNSVAWYQQKAGQPPKLLIYNASMREQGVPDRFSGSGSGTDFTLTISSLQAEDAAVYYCQQYHRLPLQFGGGTKVEIK", "log10 Kd (nM) by replicate": "0.47 0.81 0.71 0.74 0.71 0.80", "mean log10 Kd (nM)": "0.70", "signal with controls": "1/18 (2.14)"}
{"VL": "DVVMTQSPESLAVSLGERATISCKLDQWVEMESRWKNSVAWYQQKAGQPPKLLIYSASQRFEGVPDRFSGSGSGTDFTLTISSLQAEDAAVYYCQQYHRLPLSFGGGTKVEIK", "log10 Kd (nM) by replicate": "0.34 0.47 0.22 0.16 0.32 0.38", "mean log10 Kd (nM)": "0.31", "signal with controls": "0/18"}
{"VL": "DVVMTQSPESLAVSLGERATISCKLSYSELYEDRNKNSVAWYQQKAGQPPKLLIYNASTREQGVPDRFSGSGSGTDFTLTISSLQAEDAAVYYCQQYHRLPLSFGGGTKVEIK", "log10 Kd (nM) by replicate": "0.03 0.18 -0.02 0.17 -0.07 0.21", "mean log10 Kd (nM)": "0.08", "signal with controls": "0/18"}
{"VL": "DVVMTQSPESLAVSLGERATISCKVMQSMWYESRWKNSVAWYQQKAGQPPKLLIYNASQRESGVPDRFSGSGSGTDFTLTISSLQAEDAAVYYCQQYHRLPLSFGGGTKVEIK", "log10 Kd (nM) by replicate": "0.41 0.74 0.34 0.37 0.66 0.94", "mean log10 Kd (nM)": "0.58", "signal with controls": "0/18"}
{"VL": "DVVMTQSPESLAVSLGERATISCKSSQSTLYESGMKNSVAWYQQKAGQPPKLLIYNASKRMDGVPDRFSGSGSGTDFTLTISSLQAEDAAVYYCQQYHRLPLSFGGGTKVEIK", "log10 Kd (nM) by replicate": "0.35 0.13 0.04 -0.06 0.25 0.35", "mean log10 Kd (nM)": "0.18", "signal with controls": "1/18 (2.41)"}
{"VL": "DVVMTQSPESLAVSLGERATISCKLSMSVWMGSRNKNSVAWYQQKAGQPPKLLIYSANTREEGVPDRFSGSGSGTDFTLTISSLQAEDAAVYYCQQYHRLPLSFGGGTKVEIK", "log10 Kd (nM) by replicate": "-0.01 -0.30 -0.22 -0.54 -0.22 -0.16", "mean log10 Kd (nM)": "-0.24", "signal with controls": "0/18"}
{"VL": "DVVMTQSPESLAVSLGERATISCKLDFSVLEESRNPNSVAWYQQKAGQPPKLLIYSASTRESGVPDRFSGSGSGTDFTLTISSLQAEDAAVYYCQDYHRLPLSFGGGTKVEIK", "log10 Kd (nM) by replicate": "0.27 0.35 0.52 0.17 0.29 0.27", "mean log10 Kd (nM)": "0.31", "signal with controls": "2/18 (2.75)"}
{"VL": "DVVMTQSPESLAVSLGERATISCKQEQSVMLESRWKNSVAWYQQKAGQPPKLLIYNASTRMSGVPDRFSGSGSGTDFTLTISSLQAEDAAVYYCQQYHRLPLSFGGGTKVEIK", "log10 Kd (nM) by replicate": "0.68 0.30 0.41 0.36 0.57 0.55", "mean log10 Kd (nM)": "0.48", "signal with controls": "0/18"}
{"VL": "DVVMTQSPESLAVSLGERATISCKLSASQLYESRASNAVAWYQQKAGQPPKLLIYNASQRMDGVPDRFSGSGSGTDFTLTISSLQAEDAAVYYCQQYHRLPLSFGGGTKVEIK", "log10 Kd (nM) by replicate": "-0.10 -0.21 -0.31 -0.11 -0.35 -0.02", "mean log10 Kd (nM)": "-0.18", "signal with controls": "1/18 (2.05)"}
{"VL": "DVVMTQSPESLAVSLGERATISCKLSNSVWMESRNKNQVAWYQQKAGQPPKLLIYEASTREMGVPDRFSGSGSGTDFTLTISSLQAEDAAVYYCQQYHRLPLSFGGGTKVEIK", "log10 Kd (nM) by replicate": "0.58 1.02 0.48 0.44 0.49 0.51", "mean log10 Kd (nM)": "0.59", "signal with controls": "2/18 (1.60)"}
{"VL": "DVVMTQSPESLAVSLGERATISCKVSQSHLYESRNWNAVAWYQQKAGQPPKLLIYEASQRPSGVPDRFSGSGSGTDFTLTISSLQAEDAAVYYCQQYHRLPLSFGGGTKVEIK", "log10 Kd (nM) by replicate": "0.04 0.02 -0.35 -0.10 -0.11 0.00", "mean log10 Kd (nM)": "-0.08", "signal with controls": "3/18 (2.00)"}
{"VL": "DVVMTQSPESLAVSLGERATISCKLDQWVEMESRWKNSVAWYQQKAGQPPKLLIYSASQRFSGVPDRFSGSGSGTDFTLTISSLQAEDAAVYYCQQYHRLPLSFGGGTKVEIK", "log10 Kd (nM) by replicate": "1.33 1.28 0.73 0.89 0.78 1.38", "mean log10 Kd (nM)": "1.07", "signal with controls": "0/18"}
{"VL": "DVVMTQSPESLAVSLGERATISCKQSQLVWYEQRNKNSVAWYQQKAGQPPKLLIYEGSTRESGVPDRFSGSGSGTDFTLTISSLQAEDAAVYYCQQYHRLPLSFGGGTKVEIK", "log10 Kd (nM) by replicate": "-0.01 0.03 -0.10 -0.11 0.03 0.07", "mean log10 Kd (nM)": "-0.01", "signal with controls": "3/18 (3.20)"}
{"VL": "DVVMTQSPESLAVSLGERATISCKSSTSQEYEDRNKNSVAWYQQKAGQPPKLLIYHASTREEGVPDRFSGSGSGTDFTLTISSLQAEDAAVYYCQQYHRLPLSFGGGTKVEIK", "log10 Kd (nM) by replicate": "-0.15 -0.16 -0.15 -0.15 -0.03 0.25", "mean log10 Kd (nM)": "-0.07", "signal with controls": "2/18 (2.32)"}
{"VL": "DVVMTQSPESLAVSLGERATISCKLPQSCLYESRNKNSVAWYQQKAGQPPKLLIYMASQRCSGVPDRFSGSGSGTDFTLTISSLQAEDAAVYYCQQYHRLPLSFGGGTKVEIK", "log10 Kd (nM) by replicate": "0.16 0.45 0.73 0.49 0.58 0.46", "mean log10 Kd (nM)": "0.48", "signal with controls": "1/18 (2.41)"}
{"VL": "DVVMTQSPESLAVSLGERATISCKSSMSGEMESRNKNNVAWYQQKAGQPPKLLIYDASQRESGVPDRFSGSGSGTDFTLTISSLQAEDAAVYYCQQYHRLPLSFGGGTKVEIK", "log10 Kd (nM) by replicate": "-0.35 -0.48 -0.50 -0.70 -0.42 -0.35", "mean log10 Kd (nM)": "-0.47", "signal with controls": "0/18"}
{"VL": "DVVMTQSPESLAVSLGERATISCKVMQSKLQGQRNKNSVAWYQQKAGQPPKLLIYEASTRERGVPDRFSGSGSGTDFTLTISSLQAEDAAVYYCQQYHRLPLSFGGGTKVEIK", "log10 Kd (nM) by replicate": "1.05 1.07 0.93 0.70 1.12 1.13", "mean log10 Kd (nM)": "1.00", "signal with controls": "2/18 (2.65)"}
{"VL": "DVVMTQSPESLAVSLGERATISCKLSSSHLYGDRMKNSVAWYQQKAGQPPKLLIYQASQRESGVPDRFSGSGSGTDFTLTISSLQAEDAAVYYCQQYHRLPLSFGGGTKVEIK", "log10 Kd (nM) by replicate": "0.30 0.37 0.09 0.18 0.25 0.52", "mean log10 Kd (nM)": "0.29", "signal with controls": "0/18"}
{"VL": "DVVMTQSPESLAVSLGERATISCKAEGSELYESRNKNSVAWYQQKAGQPPKLLIYNASMRESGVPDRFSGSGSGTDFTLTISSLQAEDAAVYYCQQYHRLPLSFGGGTKVEIK", "log10 Kd (nM) by replicate": "0.07 0.12 0.01 -0.07 -0.19 0.08", "mean log10 Kd (nM)": "0.00", "signal with controls": "0/18"}